## CycPeptMPDB entries from one study

Data: CycPeptMPDB; original report Ahlbach et al. 2015, doi:10.4155/fmc.15.78.

PAMPA is the parallel artificial membrane permeability assay, which has no cells and reads passive diffusion.
P is given in units of 10^-6 cm/s (from log10 values with two decimals); larger means faster passage.

structure (SMILES),PAMPA (10^-6 cm/s)
CC(C)[C@@H]1NC(=O)[C@H]([C@@H](C)O)N(C)C(=O)[C@H](C(C)C)NC(=O)[C@H]([C@@H](C)O)N(C)C(=O)[C@H](C(C)C)NC(=O)CNC(=O)[C@@H](Cc2ccccc2)N(C)C(=O)[C@H](C(C)C)NC(=O)[C@H](CO)NC(=O)[C@H](C(C)C)N(C)C(=O)[C@H](CO)N(C)C(=O)[C@H](C(C)C)NC(=O)CNC(=O)[C@@H](C)N(C)C1=O,0.058
CC(C)C[C@H]1OC(=O)CCNC(=O)[C@H](C)N(C)C(=O)[C@H](C(C)C)N(C)C(=O)[C@H](C(C)C)NC(=O)[C@@H]2CCCN2C1=O,1.3
CC(C)[C@H]1C(=O)O[C@H](C(C)C)C(=O)N(C)[C@@H](C(C)C)C(=O)O[C@H](C(C)C)C(=O)N(C)[C@@H](C(C)C)C(=O)O[C@H](C(C)C)C(=O)N1C,19
CC[C@H](C)[C@H]1OC(=O)[C@H](C(C)C)N(C)C(=O)[C@@H]([C@@H](C)CC)OC(=O)[C@H](C(C)C)N(C)C(=O)[C@@H]([C@@H](C)CC)OC(=O)[C@H](C(C)C)N(C)C1=O,1
C=CC[C@H]1OC(=O)CCNC(=O)[C@H](C)N(C)C(=O)[C@H](C(C)C)N(C)C(=O)[C@H]([C@@H](C)CC)NC(=O)[C@@H]2CCCN2C1=O,0.51
CC[C@H](C)[C@@H]1NC(=O)CNC(=O)[C@@H](C)N(C)C(=O)[C@H](C(C)C)NC(=O)[C@H]([C@@H](C)O)N(C)C(=O)[C@H](C(C)C)NC(=O)[C@H]([C@@H](C)O)N(C)C(=O)[C@H](C(C)C)NC(=O)CNC(=O)[C@@H](Cc2ccccc2)N(C)C(=O)[C@H](C(C)C)NC(=O)[C@H](CO)NC(=O)[C@H](C(C)C)N(C)C(=O)[C@H](CO)N(C)C1=O,0.0041
CC(C)C[C@@H]1OC(=O)[C@H](C)NC(=O)[C@H](C(C)(C)O)OC(=O)[C@H](C)N(C)C(=O)[C@@H](C)NC(=O)[C@@H](Cc2ccccc2)N(C)C1=O,6.5
CC[C@H](C)[C@@H]1NC(=O)[C@@H]2CCCN2C(=O)[C@@H](CC(C)C)OC(=O)CCNC(=O)[C@H](C)N(C)C(=O)[C@H](C(C)C)N(C)C1=O,5.1
CCC(C)[C@@H]1OC(=O)[C@H](CCC(N)=O)N(C)C(=O)[C@H](C(C)C)NC(=O)[C@@H]2CCCCN2C(=O)[C@H]([C@@H](C)CC)NC(=O)[C@H](CCC(N)=O)N(C)C(=O)[C@H](C(C)C)N(C)C(=O)CNC(=O)[C@@H]2CCCN2C(=O)[C@H](Cc2ccccc2)NC1=O (stereo not given in full),0.0004
CC(C)[C@H]1C(=O)O[C@H](C(C)C)C(=O)N(C)[C@@H](C)C(=O)O[C@H](C(C)C)C(=O)N(C)[C@@H](C(C)C)C(=O)O[C@H](C(C)C)C(=O)N1C,3.5
CC[C@H](C)[C@@H]1NC(=O)[C@@H]2CCCN2C(=O)[C@@H](CC(O)CCl)OC(=O)CCNC(=O)[C@H](C)N(C)C(=O)[C@H](C(C)C)N(C)C1=O (stereo not given in full),0.079
CC[C@H](C)[C@H]1NC(=O)[C@@H](NC(=O)[C@@H](CC(C)C)NC)[C@@H](C)OC(=O)[C@H](Cc2ccc(OC)cc2)N(C)C(=O)[C@@H]2CCCN2C(=O)[C@H](CC(C)C)NC(=O)[C@@H](C)C(=O)[C@H](C(C)C)OC(=O)C[C@@H]1O,1.3
CC[C@H](C)[C@H]1OC(=O)[C@H](C(C)C)N(C)C(=O)[C@@H](C(C)C)OC(=O)[C@H](C(C)C)N(C)C(=O)[C@@H]([C@@H](C)CC)OC(=O)[C@H](C(C)C)N(C)C1=O,4.6
CC(C)C[C@@H]1NC(=O)[C@H](Cc2ccccc2)N(C)C(=O)[C@H](C)NC(=O)c2ccccc2NC(=O)[C@H](Cc2ccc(O)cc2)N(C)C1=O,6
CC[C@H](C)[C@H]1OC(=O)[C@H](C(C)C)N(C)C(=O)[C@@H](C(C)C)OC(=O)[C@H](C(C)C)N(C)C(=O)[C@@H](C(C)C)OC(=O)[C@H](C(C)C)N(C)C1=O,2.2
C/C=C/C[C@@H](C)[C@@H](O)[C@H]1C(=O)N[C@@H](CC)C(=O)N(C)CC(=O)N(C)[C@@H](CC(C)C)C(=O)N[C@@H](C(C)C)C(=O)N(C)[C@@H](CC(C)C)C(=O)N[C@@H](C)C(=O)N[C@H](C)C(=O)N(C)[C@@H](CC(C)C)C(=O)N(C)[C@@H](CC(C)C)C(=O)N[C@@H](C(C)C)C(=O)N1C,0.41
CC(C)C[C@@H]1OC(=O)[C@H](C)NC(=O)[C@H](C(C)C)OC(=O)[C@H](C)N(C)C(=O)[C@@H](C)NC(=O)[C@@H](Cc2ccccc2)N(C)C1=O,7.2
CC(C)C[C@@H]1NC(=O)[C@H](Cc2ccccc2)NC(=O)[C@H](Cc2ccccc2)N(C)C(=O)[C@H](Cc2ccccc2)NC(=O)C(C)(C)NC(=O)[C@H](CC(C)C)N(C)C(=O)[C@@H]2[C@@H](C)CCN2C1=O,83
CC[C@H](C)[C@@H]1NC(=O)[C@@H]2CCCN2C(=O)[C@@H](CC(C)C)OC(=O)CCNC(=O)[C@H](C)N(C)C(=O)[C@H](C(C)C)NC1=O,0.22
C/C=C/C[C@@H](C)[C@@H](O)[C@H]1C(=O)N[C@@H]([C@@H](C)O)C(=O)N(C)CC(=O)N(C)[C@@H](CC(C)C)C(=O)N[C@@H](C(C)C)C(=O)N(C)[C@@H](CC(C)C)C(=O)N[C@@H](C)C(=O)N[C@H](C)C(=O)N(C)[C@@H](CC(C)C)C(=O)N(C)[C@@H](CC(C)C)C(=O)N(C)[C@@H](C(C)C)C(=O)N1C,2.8
CC(C)C[C@@H]1NC(=O)[C@H](C)N(C)C(=O)CNC(=O)/C(=C/c2ccccc2)N(C)C1=O,2.5
CC(C)[C@@H]1NC(=O)[C@@H]2CCCN2C(=O)[C@@H](CC(O)CCl)OC(=O)CCNC(=O)[C@H](C)N(C)C(=O)[C@H](C(C)C)N(C)C1=O (stereo not given in full),0.04
CC[C@H](C)[C@@H]1NC(=O)[C@H]([C@@H](C)O)NC(=O)[C@H](Cc2ccc(OC)cc2)NC(=O)[C@@H]2CCCN2C1=O,0.058
CC(C)C[C@@H]1NC(=O)[C@H](Cc2ccccc2)NC(=O)[C@H](Cc2ccccc2)N(C)C(=O)[C@H](Cc2ccccc2)NC(=O)C(C)(C)NC(=O)[C@H](CC(C)C)N(C)C(=O)[C@@H]2CCCN2C1=O,65

A selection of 3 entries from above:

structure (SMILES),PAMPA (10^-6 cm/s)
CC(C)C[C@H]1OC(=O)CCNC(=O)[C@H](C)N(C)C(=O)[C@H](C(C)C)N(C)C(=O)[C@H](C(C)C)NC(=O)[C@@H]2CCCN2C1=O,1.3
CC[C@H](C)[C@@H]1NC(=O)[C@@H]2CCCN2C(=O)[C@@H](CC(O)CCl)OC(=O)CCNC(=O)[C@H](C)N(C)C(=O)[C@H](C(C)C)N(C)C1=O (stereo not given in full),0.079
CC(C)C[C@@H]1NC(=O)[C@H](Cc2ccccc2)N(C)C(=O)[C@H](C)NC(=O)c2ccccc2NC(=O)[C@H](Cc2ccc(O)cc2)N(C)C1=O,6

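Lipid, pH, incubation time, direction and concentration are not recorded in the data file. Other peptides of the study may be missing here. Entries at the database's floor value (log10 P of -10) are not listed.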